Binding of CDR-mutated scFvs to a peptide of the spike HR2 region

Source: Engelhart et al. 2022 (doi:10.1038/s41597-022-01779-4), MIT Lincoln Laboratory and A-Alpha Bio; data file from the FLAb repository.

Binding partner: SARS-CoV-2 spike HR2 peptide, sequence PDVDLGDISGINAS.

The variants keep the heavy chain, the linker and the frameworks of Ab-14 (scFv order VH, the linker GGGGSGGGGSGGGGS, VL).
VH: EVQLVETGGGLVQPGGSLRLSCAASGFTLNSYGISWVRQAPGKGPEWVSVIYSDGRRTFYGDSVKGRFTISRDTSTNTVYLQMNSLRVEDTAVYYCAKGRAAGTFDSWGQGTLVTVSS
VL: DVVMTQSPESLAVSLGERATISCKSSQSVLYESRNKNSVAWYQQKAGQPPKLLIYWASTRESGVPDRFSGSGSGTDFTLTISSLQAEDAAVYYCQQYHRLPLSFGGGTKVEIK

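Phage display of a naive human antibody library on the peptide gave the parent. In library AAYL50, one, two or three CDR residues were substituted; doubles and triples were drawn at random. The scFvs were displayed on barcoded MATa yeast, the peptide on MATalpha yeast. Mating (16 h, 30 °C) was followed by selection of diploids and sequencing of their barcodes. Read counts were normalised to the haploid input and turned into Kd by a linear fit to BCL2-family pairs of known affinity, for each replicate. Mating was done three times.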

Each variant is given by its three light chain CDRs, as the data file delimits them; those of the parent are KSSQSVLYESRNKNSVA, WASTRES, QQYHRLPLS.
Affinities are written as log10 Kd with Kd in nM; a lower number is a better binder.
Averages over replicates are reported, and they cover detected replicates only.
"not detected" means that the variant was in the library but no mating with the target was seen in any replicate; the authors take this as a sign of poor binding, and no number exists.
As a blank, each scFv also met three strains without target: over library AAYL50, 18% of these pairings were detected, typically at 4.19 and seldom below 2.99.

mean, log10 nM	detected	CDR-L1	CDR-L2	CDR-L3
not detected	0 of 3	KGSQSVLYASRNKNSVA	WASTRES	QQYHCLPLS
1.08	3 of 3	KSSFSVQHESRNKNSVA	WASTRES	QQYHRLPLS
6.03	1 of 3	KSMCSVLYESRNKNSVN	WASTRES	QQYHRLPLS
not detected	0 of 3	KSSQHVLCESRNKNSVA	WASTRES	QQYHRLPLS
3.34	1 of 3	KSSQSVLYEMRMKNSVA	WISTRES	QQYHRLPLS
not detected	0 of 3	KSSQSVLYESRNKNSVY	WAVTLES	QQYHRLPLS
not detected	0 of 3	KSSQKVLYESRNKYSVA	WASTRES	QQWHRLPLS
not detected	0 of 3	KSSQRVLYESRNKNIQA	WASTRES	QQYHRLPLS
0.98	3 of 3	KASQSVLYESRNKYSVA	WASTRES	QQYHRLPDS
2.19	3 of 3	KCSQSVLYESRNCNSVA	WASTRES	QQYHRLNLS
2.77	1 of 3	ISSQSVLYESRNKNSVA	WASTRES	QQYHRDPLS
0.87	3 of 3	HSSDSVLYESRNKNSVA	WASTRES	QQYHRLPLS
0.03	3 of 3	KSSQSPLYESRNKNSVA	SSSTRES	QQYHRLPLS
3.49	1 of 3	KSSQSVLYESRNKNSVA	WASTREA	QQAKRLPLS
3.67	1 of 3	KSSQSVLWESRNKNSPA	WASTLES	QQYHRLPLS
not detected	0 of 3	KESQSVLYESRNKNSVG	WASTRES	QQYLRLPLS
3.47	3 of 3	KSSQSVLNESCNKNSVA	WASRRES	QQYHRLPLS
3.80	1 of 3	KSSQSVLKESRNKNSVA	WASTRES	QQYTRTPLS
not detected	0 of 3	KSSQSVLYESRNKNSVK	WAKTRES	QQYHRLALS
3.43	1 of 3	KSSQSVLYESRNKGSVA	WASQRES	QQYHRTPLS
4.56	1 of 3	KSSQSVLYTSRNKNGVA	WAGTRES	QQYHRLPLS
not detected	0 of 3	KSSQSVLYESRNKNIVA	WAHTRFS	QQYHRLPLS
3.11	3 of 3	KSSQSVLYERRYKNSVA	WASTRES	QTYHRLPLS
not detected	0 of 3	KSSQSVLYESRNKHSVQ	WFSTRES	QQYHRLPLS
not detected	0 of 3	KSSQSVLYEAHNKNSVA	WASTRES	QRYHRLPLS
not detected	0 of 3	KSSQSVLYECRNKNSVA	WASTRHS	QQYHRLPAS
1.67	3 of 3	KSSQSELYESRNGNSVA	WASTRIS	QQYHRLPLS
1.19	3 of 3	KESQSVLYESRNKNQVA	WASTRES	QQYHRLPLS
3.71	3 of 3	KSSQSVLYECRNKNSVA	WASTRED	QQYMRLPLS
not detected	0 of 3	KSSQSVLYEYRNKPSVA	WAKTRES	QQYHRLPLS
3.63	3 of 3	KSSQSVWYESRNKNSVA	WASTRPS	QQYHREPLS
not detected	0 of 3	KSSQSVLYESRNKNYVA	WASERES	QQQHRLPLS
5.42	1 of 3	KSSQSVLYYSRNKNSVE	WYSTRES	QQYHRLPLS
1.27	3 of 3	KSSQSVYYESCNKNSVA	WASTRES	QQYNRLPLS
2.38	1 of 3	KSSQNVLYCSRNKISVA	WASTRES	QQYHRLPLS
2.29	3 of 3	KSSQSVLYHSRNKNSVA	WAMTREV	QQYHRLPLS
4.07	1 of 3	KSKQSVLYESRNKNSVA	WAKTRES	QQYHRLVLS
2.55	3 of 3	KSSQSVLYESRNENSVA	WASTRES	QQYHRLPLG
5.21	1 of 3	KSSQSVLYESRNKNSVA	WASTREM	QQWHRLPLS
4.70	1 of 3	KSSQSVCYESRNKNKVG	WASTRES	QQYHRLPLS
1.12	3 of 3	KASQSVLYFSRNKNSVA	WASTREQ	QQYHRLPLS
4.24	1 of 3	KSSQSVLYECRNKNSVA	WASTYES	QQYHRLPDS
3.42	3 of 3	KSSQMVLYESRNKNSVA	WMSTRVS	QQYHRLPLS
1.57	3 of 3	KSSQSVLEETRNKNSVA	WASTRES	QQYCRLPLS
not detected	0 of 3	KSSQSLLYESRNKNSVA	WASTRES	QKYHRLPLH
4.06	2 of 3	KSSQSVLYMSRNKNSVA	WAGTREE	QQYHRLPLS

In this assay the parent's reference entry averaged 0.65; its copy inside this library read 1.68.